{"source": "patent US20080248131A1", "about": "(Metaproteomics, LLC, priority 2005, published 2008)", "key": {"KK-Ay/Ta mice": {"tested_on": "KK-Ay/Ta mice", "assay": "KK-Ay mouse diabetes model, serum glucose and insulin", "format": "in vivo", "conditions": "KK-Ay diabetic mice; 1.0 mg/kg-day, gavage once daily for three days"}, "db/db mice": {"tested_on": "db/db mice", "assay": "db/db mouse diabetes model, serum glucose and insulin", "format": "in vivo", "conditions": "db/db diabetic mice; 1.0 mg/kg-day, gavage once daily for three days"}}, "note": "Marks after values point to notes of the source that are not given here."}
{"smiles": "CN(CCOc1ccc(CC2SC(=O)NC2=O)cc1)c1ccccn1", "note": "(centres unmarked) [rosiglitazone]", "values": [{"measurement": "Insulin (serum)", "setting": "KK-Ay/Ta mice", "value": 88.7, "unit": "% Pretreatment"}, {"measurement": "Insulin (serum)", "setting": "db/db mice", "value": "84.7# % Pretreatment"}]}
